For the test, the target named is human BCL6 BTB domain (Trx-6xHis-BCL6) (Homo sapiens (Human), UniProt P41182). The experiment in a line: HTRF in vitro assay (BCL6 BTB domain / BCOR-AF633 peptide). In kind it is binding. (Time-resolved FRET reads energy transfer from a long-lived donor to a nearby acceptor.)

As to `CC(CO)Nc1nc(=O)[nH]c2ccc(Nc3ccnc(Cl)c3C#N)cc12` (centres unmarked), the “HTRF pIC50” value was 6.35 (further generated data (Table 1b), 1 nM Trx-6xHis-BCL6, 0.5 nM anti-6xHis-Terbium cryptate) and 6.10 (initially generated data (Table 1a), 10 nM Trx-6xHis-BCL6, 1 nM anti-6xHis-Terbium cryptate).
